This is an account of results in patent US20060069516A1.

What all share (test): radioreceptor assay, competitive displacement of [125I-DTyr0]-astressin, membranes of transfected COSM6 cells
(In general: Loss of bound radioactivity is the signal in a displacement assay; it reports binding, not function.)

Experiment [1] concerns the target myc-mCRFR2β (I67E) (mouse).
The target in experiment [2] is myc-mCRFR2β (K92Q) (mouse).
For experiment [3], the target named is myc-mCRFR2β (R112E) (mouse).
Experiment [4] has as its target myc-mCRFR2β (R112W) (mouse).
For another experiment, the target named is myc-mCRFR2β (mouse).

Usually Ki stands for the dissociation constant of the complex between target and ligand, obtained from inhibition or displacement. On to astressin (peptide), for which the Ki was determined as 128 nM in experiment [1]; 3.1 nM in experiment [2]; 7.2 nM in experiment [3]; 1.9 nM in experiment [4]; 1.1 nM with myc-mCRFR2β (mouse).
